Experimental data published in patent US4966916A (priority 1989, dated 1990).

Tested on: rats
Experiment: prostration after administration into the fourth ventricle (Example 1)
Assay type: in vivo, rat

| SMILES | prostration / psychotropic activity (intraventricular) | Prostration EC50 (fourth ventricle, Table 2) |
| --- | --- | --- |
| CC(=O)OCC[N+](C)(C)C | inactive | – |
| C[N+](C)(C)CCCCCC[N+](C)(C)C [hexamethonium] | – | IA |
